20 compounds from PubChem BioAssay AID685 (PCMD, 2007) can be followed below.

The list shows a part of the results, in another mix than the full data. Activity calls are given as the source filed them.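 Rule for the calls: active = mutant and wild-type yeast strains alike exhibit over 30% growth inhibition; inconclusive = a strain exceeds 50% while the second remains under 30%; inactive = the rest.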

This test in a line: yeast growth toxicity, wild-type and mutant, primary screen, cytotoxicity control for eIF2B function restoration project, wild-type and eIF2Bepsilon R284H mutant, A595 (AID 685).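 Note: 0% = untreated cell controls and 100% = YPD media blanks without cells.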 As to conditions: S. cerevisiae wild-type growth, A595 turbidity, 16 h; stronger effect = higher value; screened at 25 µM (by protocol). In outline: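 system = S. cerevisiae wild-type or eIF2Bepsilon-R284H mutant strain | buffer or medium = YPD medium | dosing = one dose, 25 µM compound, 0.2% DMSO | schedule = 16 h at 30 °C | measured by = A595 turbidity | evaluation = growth inhibition (%) versus cell controls and blanks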
Consider `O=C(OC1CN2CCC1CC2)c1cccc(Cl)c1` (stereo not given), for which the growth inhibition was inactive: 3.61%.
With `COC(=O)c1cc2c(s1)N=C(c1ccccc1)N(C)P2(=O)N1CCOCC1` (stereo not given), the growth inhibition is inactive: 3.11%.
With `O=P1(Nc2nc3ccc(Cl)cc3s2)COc2ccccc2O1` (stereo not given), the growth inhibition is inactive: -0.71%.
Under `CN1CCCC(OC(=O)C(c2ccccc2)c2ccccc2)C1` (stereo not given) stands inactive: -1.88%; under `COc1ccc(OP(C)(=O)Nc2ccccn2)cc1` (stereo not given), inactive: 28.5%; under `COc1ccccc1OP(C)(=O)Nc1ccc(C)cc1C` (stereo not given), inactive: 17.9%.
Under `Cc1c2non([O-])c-2c(C)[n+](=O)[n+]1[O-]` stands inactive: -8.75%; under `Oc1ccccc1CNc1ccccn1`, inactive: 24.4%.
Under `Cc1c(NP(C)(=O)Oc2ccc(C(C)C)cc2)c(=O)n(-c2ccccc2)n1C` (stereo not given) stands inactive: -13.1%.
For the compound `O=[N+]([O-])c1cccc2n[nH]nc12`, the growth inhibition is inactive: 18.9%.
For the compound `CC1CCN(C(=O)Oc2c(Cl)cc(Cl)c3cccnc23)CC1`, the growth inhibition is inactive: -9.63%.
As to `CCOP(C)(=S)SCC(=O)NC(C)C(=O)O` (stereo not given), the growth inhibition was inactive: -3.12%.
Under `Cc1ccc(NP(C)(=O)Oc2ccccc2)c(C)c1` (stereo not given) stands inactive: 1.67%; under `COc1ccccc1OP(C)(=O)Nc1ccc(C)cc1` (stereo not given), inactive: 18.9%; under `O=C(OC1CN2CCC1CC2)C12CC3CC(CC(C3)C1)C2` (stereo not given), inactive: -2.24%.
As to `Cc1cc(C)cc(OP(C)(=O)Nc2ccccn2)c1` (stereo not given), the growth inhibition is inactive: 27.3%.
In the case of `O=P1(Nc2ccc(Br)cn2)COc2ccccc2OC1`, the growth inhibition is inactive: 19.3%.
For the compound `COc1ccccc1OP(C)(=O)Nc1c(C)cccc1C` (stereo not given), the growth inhibition was inactive: -1.72%.
For the compound `O=P1(Nc2ncccn2)COc2ccccc2OC1`, the growth inhibition is inactive: 6.19%.
Regarding `CC1(CBr)Cn2c(nc3ccccc3c2=O)S1` (stereo not given), the growth inhibition was inactive: 0.34%.
